Results taken from PMC10671360, “In Silico and In Vitro Study towards the Rational Design of 4,4′-Disarylbisthiazoles as a Selective α-Synucleinopathy Biomarker” (International Journal of Molecular Sciences, 2023).

Assay: Solubility in the incubation medium of the binding assays
Assay type: physicochemical
Details: incubation buffer of the binding assays
Excerpt: Solubility was so low that some of them had to be excluded from some of the binding assays. The reason for this observation cannot be explained based on the present study, but it is speculated that increased intramolecular π–π stacking in the presence of heteroaromatic rings might have contributed to this phenomenon.

Question: For “5-(4′-(5-Methoxypyrimidin-2-yl)-[2,2′-bithiazol]-4-yl)-[1,3]dioxolo[4,5-b]pyridine [f16]”, which “solubility in the incubation medium” value is on record?
Answer: Its value is “low solubility; also recorded: decreased solubility; also recorded: could not be dissolved”.

“Also recorded” adds a separate entry of the source.
